Measurements taken from patent US10052306B2 (LUC THERAPEUTICS, INC., priority 2013, dated 2018).

By UniProt entry, the sequences of proteins in these tests, tags left out. Residues count along the entry.
UniProt Q13224, 27-1484: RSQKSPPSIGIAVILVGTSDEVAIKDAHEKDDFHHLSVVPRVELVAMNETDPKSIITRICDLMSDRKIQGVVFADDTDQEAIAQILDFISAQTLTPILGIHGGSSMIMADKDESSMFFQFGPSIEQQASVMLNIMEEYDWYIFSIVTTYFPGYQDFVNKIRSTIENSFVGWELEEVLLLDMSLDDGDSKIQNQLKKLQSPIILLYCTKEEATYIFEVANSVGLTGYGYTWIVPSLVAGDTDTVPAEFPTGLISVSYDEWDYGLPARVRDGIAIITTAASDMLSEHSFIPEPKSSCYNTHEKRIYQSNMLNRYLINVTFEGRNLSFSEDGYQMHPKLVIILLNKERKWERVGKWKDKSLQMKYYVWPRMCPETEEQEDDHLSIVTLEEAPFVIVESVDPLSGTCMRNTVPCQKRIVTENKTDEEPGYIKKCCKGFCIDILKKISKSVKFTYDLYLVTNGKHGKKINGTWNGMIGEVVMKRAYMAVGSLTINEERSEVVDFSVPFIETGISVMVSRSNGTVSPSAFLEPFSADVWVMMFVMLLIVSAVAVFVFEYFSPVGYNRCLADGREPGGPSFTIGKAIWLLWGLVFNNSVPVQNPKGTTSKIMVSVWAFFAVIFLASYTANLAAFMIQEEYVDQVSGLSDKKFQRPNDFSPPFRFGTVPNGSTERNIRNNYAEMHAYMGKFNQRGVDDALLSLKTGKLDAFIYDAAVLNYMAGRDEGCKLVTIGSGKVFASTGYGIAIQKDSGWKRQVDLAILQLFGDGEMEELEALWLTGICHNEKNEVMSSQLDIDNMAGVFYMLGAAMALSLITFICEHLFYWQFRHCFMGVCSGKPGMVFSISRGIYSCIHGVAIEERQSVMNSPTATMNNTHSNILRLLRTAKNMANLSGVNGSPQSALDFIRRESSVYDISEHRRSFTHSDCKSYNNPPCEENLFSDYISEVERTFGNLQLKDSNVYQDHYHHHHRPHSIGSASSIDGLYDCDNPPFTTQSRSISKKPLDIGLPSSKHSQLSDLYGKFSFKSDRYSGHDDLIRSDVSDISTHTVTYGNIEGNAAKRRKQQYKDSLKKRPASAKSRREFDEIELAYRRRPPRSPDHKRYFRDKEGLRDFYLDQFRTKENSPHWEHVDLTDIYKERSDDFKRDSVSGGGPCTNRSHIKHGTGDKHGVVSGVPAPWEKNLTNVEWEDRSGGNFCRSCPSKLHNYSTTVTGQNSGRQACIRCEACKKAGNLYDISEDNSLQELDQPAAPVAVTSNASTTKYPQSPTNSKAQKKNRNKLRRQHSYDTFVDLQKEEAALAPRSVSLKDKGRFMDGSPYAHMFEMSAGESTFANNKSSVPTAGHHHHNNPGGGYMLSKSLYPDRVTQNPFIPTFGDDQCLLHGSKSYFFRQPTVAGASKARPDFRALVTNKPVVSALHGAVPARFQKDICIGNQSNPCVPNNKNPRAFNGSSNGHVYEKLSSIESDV

Legend:
[1] = target: NR1/NR2B (Homo sapiens (Human), UniProt Q05586+Q13224); assay: Cell assay: FDSS Ca2+ influx inhibition in HEK293 cells expressing NR1/NR2B;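 also: Fluo-8 Ca2+ signal read on Hamamatsu FDSS 6000 after glutamate, glycine and Ca2+ challenge following 10 min compound preincubation, end/baseline fluorescence ratio compared with MK801 control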
[2] = target: NR1/NR2B (Homo sapiens (Human), UniProt Q13224); assay: as above; details: read-out: NR2B NAM IC50

In the case of `O[C@@]1(c2ccccc2)C[C@H]2CN(c3cccc(C(F)(F)F)n3)C[C@H]2C1` [Example 83, 5-phenyl-2-[6-(trifluoromethyl)pyridin-2-yl]-octahydrocyclopenta[c] pyrrol-5-ol], the IC50 [1] is reported as over 10 µM and the IC50 [2] is reported as 10 µM.
